CAL PDZ FP-1: blocks peptide binding to human CAL PDZ domain | 330,000 tested, 0.02% active | Q9HD26 | inhibition, % at 20 µM | AID 504414 | purified CAL PDZ, TMR-peptide fluorescence polarization, 1 h;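 active = highest replicate inhibition of at least 40%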;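 also: plate controls were DMSO neutral control wells for no effect and unlabeled competitor peptide control wells for full effect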
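Material: tagged CAL PDZ domain; buffer or medium: 25 mM sodium phosphate pH 7.4, 150 mM NaCl, TCEP, IgG, Thesit; compound dosing: single point, 20 µM; schedule: 1 h incubation at room temperature before polarization reading; measured by: FP readout, S and P plane fluorescence; read-out basis: percent inhibition from loss of millipolarization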
dFosB activator: activators of mouse delta FosB homodimer; P13346; purified delta FosB, TAMRA-CDK5 oligo fluorescence polarization; percent of positive-control signal above neutral wells; activation, % at 25 µM; 340,000 tested, 0.99% active;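 active = mean activation above about 17%, with every replicate also reaching it, limit read from the data, passing the limit was not always enough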
DYRK1A inh: blocks rat Dyrk1A kinase activity | Q63470 | ADP-Glo luminescence, NFATc1 peptide | inhibition, % at 12.5 µM | 310,000 tested, 0.43% active | AID 504441; in the data active = inhibition above about 50%;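 also: plate controls were vehicle with enzyme for no effect and no enzyme for full effect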
CAL PDZ FP-2: inhibitors of human CAL PDZ peptide binding | Q9HD26 | purified CAL PDZ, TMR-peptide fluorescence polarization, 1 h | inhibition, % at 24.9 µM | 300,000 tested, 0.92% active | AID 602252;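 active = mean inhibition of at least 30% with at least half of replicates also reaching 30%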;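 also: 0% = DMSO neutral control and 100% = excess unlabeled competitor peptide PRC23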
Yeast UUG start: alters start codon recognition fidelity in yeast; S. cerevisiae UUG-firefly luciferase reporter, luminescence/redox ratio; activity score, % at 18.7 µM; hit rate 0.13% among 350,000;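 active = replicate mean at a twofold rise or more, about +100% in these data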;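 also: firefly luciferase made from a UUG start codon reports start codon fidelity; reporter light over untreated wells divided by growth signal over untreated wells; some hits fall short of that in this replicate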
CDK5 inh: inhibitors of human CDK5/p35 kinase. Recombinant CDK5/p35, ADP-Glo luminescence, 60 min. Q00535+Q15078. 330,000 tested, 0.01% active. inhibition, % at 10 µM;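 active = highest replicate inhibition of at least 50% and at least 75% of replicates reaching 50%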;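 also: plate controls were DMSO neutral control for no effect and GW8510 at 10 µM for full effect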
Dyrk1A artifact: interferes with ADP-Glo luciferase readout without Dyrk1A. AID 588348. shares compounds with DYRK1A inh. 1,300 tested, under 10 active. ADP-Glo luciferase artifact assay, no Dyrk1A, luminescence. AC50, µM (doses to about 12 µM), without a hit: at the top dose activity change, negative = inhibition;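 active = fitted half-maximal dose AC50 no more than ten times the top valid tested dose, with luminescence dropping as dose rises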
* = called active by the depositor; . = no result. The list is not random: actives were taken first. Their share in the collection is about 1.7%.

CAL PDZ FP-1 | dFosB activator | DYRK1A inh | CAL PDZ FP-2 | Yeast UUG start | CDK5 inh | SMILES | Dyrk1A artifact
0.2 | -16.4 | 54.8* | -3.1 | -7.5 | -1.2 | COc1ccc(N/C=C2\C(=O)CCc3c2oc2cc(Cl)c(O)c(Cl)c32)cc1 | 9.3%
-1.5 | -3.5 | 7.9 | . | 16.8 | 6.8 | COc1ccc(N/C=C2\CCOC2=O)cc1 | .
. | . | . | . | -0.5 | . | O=C(Cc1ccncc1)Nc1ccc2c(c1)[C@H]1C[C@@H](CC(=O)N3CCOCC3)O[C@@H](CO)[C@H]1O2 | .
-1.0 | -3.2 | 66.9* | -4.2 | -9.6 | -1.2 | O=C(Nc1nc2c(s1)CCCC2)c1ccc(N2C(=O)CCC2=O)cc1 | 8.0%
-1.8 | 2.0 | 48.6 | -2.6 | . | -0.4 | CCc1ccc2nc(NC(=O)c3ccc(N4C(=O)CCC4=O)cc3)sc2c1 | .
-2.6 | -4.5 | 56.5* | -2.0 | -14.2 | 0.4 | CC1CCc2nc(NC(=O)c3ccc(N4C(=O)CCC4=O)cc3)sc2C1 (configuration not stated) | 6.1%
. | . | . | . | -3.1 | . | C[C@@H]1CN([C@H](C)CO)C(=O)c2cc(N(C)C)ccc2O[C@@H](C)CCCCO[C@@H]1CN(C)C(=O)c1ccncc1 | .
-0.3 | 1.0 | 77.7* | 4.9 | -6.7 | 0.1 | COc1ccc(NC(=O)/C(C#N)=C\c2ccc(-c3cccc(C(=O)O)c3C)o2)cc1 | 9.8%
0.1 | -6.0 | 59.3* | . | -24.9 | 0.1 | Clc1cccc(Cc2nn[nH]n2)c1 | 10.5%
. | 5.8 | 0.8 | 0.4 | . | 1.9 | Clc1cccc(Cc2ccc(Cl)nn2)c1 | .
. | . | . | . | -13.3 | . | COCC1=C2[C@@H](c3ccccc3)OB(O)C[C@@H]2[C@@H]2C(=O)N(Cc3ccccc3)C(=O)[C@@H]2C1 | .
-0.5 | 0.5 | 50.1* | -1.8 | -14.5 | 1.1 | CC(=O)c1cccc(NC(=O)Nc2ccc3c(c2)N(C)C(=O)CS3)c1 | 8.1%
1.0 | 4.7 | 5.5 | -5.1 | -11.9 | -2.6 | Cc1cc(C)cc(NC(=O)Nc2ccc3c(c2)N(C)C(=O)CS3)c1 | .
. | . | . | . | 40.1 | . | C[C@H](CO)N1C[C@H](C)[C@@H](CN(C)CC2CC2)Oc2ccc(NC(=O)Nc3ccc(F)cc3)cc2CC1=O | .
0.3 | -10.3 | 57.5* | . | -18.6 | -0.5 | CCOc1ccc(C2CC(c3cccc(OC)c3)Nc3nc(N)nn32)cc1 (configuration not stated) | 8.7%

Record cards (already shown). Values in the order: CAL PDZ FP-1, dFosB activator, DYRK1A inh, CAL PDZ FP-2, Yeast UUG start, CDK5 inh, Dyrk1A artifact
`COc1ccc(N/C=C2\CCOC2=O)cc1` reads -1.5, -3.5, 7.9, ., 16.8, 6.8, .
`C[C@@H]1CN([C@H](C)CO)C(=O)c2cc(N(C)C)ccc2O[C@@H](C)CCCCO[C@@H]1CN(C)C(=O)c1ccncc1` reads ., ., ., ., -3.1, ., .

(next part)
CAL PDZ FP-1 | dFosB activator | DYRK1A inh | CAL PDZ FP-2 | Yeast UUG start | CDK5 inh | SMILES | Dyrk1A artifact
1.1 | 0.5 | 57.3* | -2.9 | -40.6 | 12.1 | O=c1cc(-c2ccccc2)oc2cc(O)c(O)c(O)c12 | 10.4%
1.3 | -8.6 | 54.4* | -0.2 | -1.2 | 2.5 | O=c1cc(-c2ccc(O)cc2)oc2c(O)c(O)c(O)c(O)c12 | 10.4%
. | . | . | . | 4.6 | . | COc1ccc(NC(=O)Nc2ccc3c(c2)C(=O)N([C@H](C)CO)C[C@H](C)[C@H](CN(C)C)OCCCC[C@H](C)O3)cc1 | .
. | . | . | . | -1.2 | . | C[C@H](CO)N1C[C@H](C)[C@@H](CN(C)C(=O)c2cccc(F)c2)Oc2ncc(-c3ccccc3)cc2C1=O | .
. | . | . | . | -6.2 | . | C[C@@H]1CN([C@H](C)CO)C(=O)c2cc(NS(=O)(=O)c3cccs3)ccc2O[C@H]1CN(C)Cc1ccc(C(F)(F)F)cc1 | .
-0.9 | -6.8 | 68.6* | -2.7 | -19.3 | 0.5 | N#CCC(N)=C(C#N)C#N | 7.6%
-3.4 | -8.4 | 65.5* | -4.3 | 3.0 | 4.3 | CCC1(CC)NC(=O)N(CC(=O)Nc2sc3c(c2C(N)=O)CCC3)C1=O | 2.0%
. | . | . | . | 10.0 | . | C[C@@H]1CN([C@H](C)CO)S(=O)(=O)c2ccc(C3=CCCCC3)cc2O[C@H]1CN(C)C(=O)C1CC1 | .
0.3 | -12.0 | 54.9* | -4.3 | -9.6 | -0.2 | CC(=O)Nc1ccc(Nc2cc(C)nc3c(-c4ccccc4)cnn23)cc1 | 7.8%
-1.9 | -8.0 | 76.6* | -3.6 | -17.5 | 0.6 | COc1ccc(/C=C2\SC(=S)N(C(C)C(=O)NC3C=CS(=O)(=O)C3)C2=O)cc1 (configuration not stated) | 8.4%
-1.8 | 4.7 | 14.4 | . | -8.3 | 1.8 | CC(C)Cn1nc(NC(=O)c2cccs2)c2cc3ccccc3nc21 | .
-0.8 | -3.1 | 89.4* | . | -13.4 | 43.4 | COc1ccc2nc3c(cc2c1)c(NC(=O)c1cccs1)nn3CC(C)C | 8.5%
-2.1 | -4.2 | 66.2* | . | -4.7 | 0.7 | CCCCOc1cccc(C(=O)NC(=S)Nc2ccc(Cl)c(C(=O)O)c2)c1 | 10.8%
-3.2 | -10.6 | -4.9 | -4.7 | -28.2 | 0.2 | O=C(NC(=S)Nc1ccc(Cl)c(C(=O)O)c1)c1cccc(COc2ccccc2)c1 | .
. | . | . | . | -1.2 | . | COCC(=O)N1C[C@H](C)[C@H](OC)CN(C)C(=O)c2ccc(NC(=O)Nc3ccccc3)cc2OC[C@@H]1C | .
-0.7 | 3.9 | 56.5* | 3.8 | -19.0 | 3.6 | S=c1[nH]c2ccccc2n2c(=S)[nH]nc12 | 7.1%
. | . | . | . | -14.0 | . | S=c1[nH]nc2ccc3ccccc3n12 | .
-1.9 | -1.6 | 85.9* | . | 28.1 | -1.5 | CCOC(=O)CSC1=NC(=O)/C(=C\c2ccc(OC(C)=O)cc2)S1 | 8.5%
. | . | . | . | 3.3 | . | C[C@@H]1CN([C@H](C)CO)C(=O)CCCn2cc(nn2)CO[C@@H]1CN(C)S(=O)(=O)c1ccc2c(c1)OCCCO2 | .
-1.3 | 2.0 | 56.4* | . | -34.9 | 0.2 | Nc1ccc(C(=O)Nc2nc3ccccc3s2)cc1 | 5.5%
-6.2 | -31.7 | 53.0* | -1.1 | -12.8 | 0.6 | c1cncc(-c2nc(NCc3ccco3)c3ccccc3n2)c1 | 10.4%
-2.2 | -40.1 | 74.9* | 8.8 | . | -1.1 | c1cncc(-c2nc(NCCCn3ccnc3)c3ccccc3n2)c1 | 9.2%
-1.5 | 10.8 | 1.8 | -5.3 | . | 0.6 | Cc1ccc(-c2nc(NCc3ccco3)c3ccccc3n2)cc1 | .
. | . | . | . | 4.6 | . | Cc1noc(C)c1S(=O)(=O)N(C)C[C@@H]1OCCCC[C@H](C)Oc2ccc(NC(=O)c3ccccc3)cc2C(=O)N([C@@H](C)CO)C[C@H]1C | .
0.0 | 1.6 | 84.8* | 51.8* | . | 3.8 | O=C1NC(=O)/C(=C\c2ccc(O)cc2O)S1 | 7.9%
. | . | . | . | 11.9 | . | C[C@@H]1CN([C@H](C)CO)C(=O)c2cc(C#Cc3ccccc3)cnc2O[C@H]1CN(C)C(=O)c1ccccc1 | .
. | . | . | . | -5.5 | . | COc1ccc(S(=O)(=O)N[C@H]2CC[C@@H](CCn3cc(C(C)C)nn3)O[C@H]2CO)cc1 | .
-0.6 | -13.3 | -5.8 | -4.6 | -0.6 | 0.6 | COC(=O)C1=C(C)N(Cc2ccccc2)C(=NCc2cccc(C(F)(F)F)c2)N[C@H]1c1cccc(C(F)(F)F)c1 | .
-0.3 | 6.6 | 56.8* | 3.9 | -9.8 | -0.5 | COCCN=C1N[C@@H](c2cccc(C(F)(F)F)c2)C(C(=O)OC)=C(C)N1Cc1ccccc1 | 8.5%
. | . | . | . | -10.3 | . | COc1ccccc1CNC(=O)C[C@@H]1C=C[C@@H](NC(=O)CC2CC2)[C@@H](CO)O1 | .
-0.4 | -8.1 | 0.7 | -2.3 | -16.3 | 0.8 | O=c1cc[nH]c2c1ccc1c(=O)cc[nH]c12 | .

Some values from above:
In CDK5 inh, Clc1cccc(Cc2nn[nH]n2)c1 shows 0.1
In dFosB activator, CC(C)Cn1nc(NC(=O)c2cccs2)c2cc3ccccc3nc21 shows 4.7
In CDK5 inh, CCOC(=O)CSC1=NC(=O)/C(=C\c2ccc(OC(C)=O)cc2)S1 shows -1.5
In Yeast UUG start, C[C@@H]1CN([C@H](C)CO)C(=O)CCCn2cc(nn2)CO[C@@H]1CN(C)S(=O)(=O)c1ccc2c(c1)OCCCO2 shows 3.3
In Dyrk1A artifact, O=C1NC(=O)/C(=C\c2ccc(O)cc2O)S1 shows 7.9%

Compound activity as filed in PubChem BioAssay.
